Literature values, collected in patent publication US20160081975A1, “SOFT GEL COMPOSITIONS AND PRE-GEL CONCENTRATES” (VIRUN, INC., priority 2014, published 2016).

Conditions: low concentrations, in water

Substance: D-α-tocopheryl polyethylene glycol succinate [TPGS]
- Concentration forming a micellar solution: 0.04 to 0.06 mmol/L
